Target: T1, GST fusion protein containing the Met kinase domain (Homo sapiens, UniProt P08581)
T1 construct: Purified GST fusion protein containing the Met kinase domain, SUGEN, Inc
Assay: MET transphosphorylation assay (ELISA, poly(glu-tyr) substrate)
Type: biochemical
Method: MET Transphosphorylation Assay
8. 10% aqueous (MilliQue H2O) DMSO.
11. 4× ATP Reaction Mixture: for 10 mL, mix 0.4 mL 1 M manganese chloride and 0.02 mL 0.1 M ATP in 9.56 mL dH2O.
12. 4× Negative Controls Mixture: for 10 mL, mix 0.4 mL 1 M manganese chloride in 9.6 mL dH2O.
17. Goat anti-rabbit horseradish peroxidase conjugated antibody, Biosource, Inc.
18. ABTS Solution: for 1 L, mix 19.21 g citric acid, 35.49 g Na2HPO4 and 500 mg ABTS with sufficient dH2O to make 1 L.
2. Block plate with 150 μL of 5% BSA/PBS for 60 min.
4. Add 50 μl of the diluted kinase to all wells. (Purified kinase is diluted with Kinase Dilution Buffer. Final concentration should be 10 ng/well.)
5. Add 25 μL of the test compound (in 4% DMSO) or DMSO alone (4% in dH2O) for controls to plate.
6. Incubate the kinase/compound mixture for 15 minutes.
7. Add 25 μL of 40 mM MnCl2 to the negative control wells.
8. Add 25 μL ATP/MnCl2 mixture to the all other wells (except the negative controls). Incubate for 5 min.
9. Add 25 μL 500 mM EDTA to stop reaction.
10. Wash plate 3× with TBST.
11. Add 100 μL rabbit polyclonal anti-Ptyr diluted 1:10,000 in Antibody Dilution Buffer to each well. Incubate, with shaking, at room temperature for one hour.
12. Wash plate 3× with TBST.
13. […] Add 100 μL per well and incubate at room temperature, with shaking, for one hour.
14. Wash plate 1× with PBS.
15. Add 100 μl of ABTS/H2O2 solution to each well.
16. […]

By UniProt entry, the sequences of proteins in these tests, tags left out. Residues count along the entry.
UniProt P08581, 1078-1345 limits assumed: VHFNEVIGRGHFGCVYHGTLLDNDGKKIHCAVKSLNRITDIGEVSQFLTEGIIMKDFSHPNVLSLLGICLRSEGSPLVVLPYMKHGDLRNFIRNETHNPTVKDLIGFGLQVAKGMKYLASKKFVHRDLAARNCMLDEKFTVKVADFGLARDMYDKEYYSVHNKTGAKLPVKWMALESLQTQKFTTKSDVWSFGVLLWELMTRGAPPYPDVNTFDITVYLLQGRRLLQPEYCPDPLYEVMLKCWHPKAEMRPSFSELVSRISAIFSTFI

Nc1ncc(-c2cccc(C(=O)NCCN3CCOCC3)c2)nc1OCc1cccc(F)c1C(F)(F)F [II-123, 3-[5-Amino-6-(3-fluoro-2-trifluoromethyl-benzyloxy)-pyrazin-2-yl]-N-{2-[ethyl-(2-methoxy-ethyl)-amino]-ethyl}-benzamide]
IC50: 450 nM

Reference: patent US8106197B2, “Aminoheteroaryl compounds as protein kinase inhibitors” (Pfizer Inc., priority 2003, dated 2012)
